# Values quoted from earlier work, collected in patent US8420131B2, “Composition for obesity treatment” (priority 2011, dated 2013).
# Conditions: group treated with insulin
substance,measurement,value
insulin,average weight gain,6.5 kg
